Earlier results on one substance are cited in patent US6887842B1, “Modulating a pharmacokinetic property of a drug by administering a bifunctional molecule containing the drug” (The Board of Trustees of the Leland Stanford Junior …, priority 1999, dated 2005).

The conditions of this data set: in vivo.

In the case of fluorostatin, the hepatic first-pass clearance entry is listed as “extensive hepatic first-pass clearance”.
